## AlphaSeq binding of Ab-14 heavy chain variants to a spike HR2 peptide

Target: peptide PDVDLGDISGINAS, taken from heptad repeat 2 (HR2) of SARS-CoV-2 spike.

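Phage display of a naive human antibody library on the peptide gave the parent. AAYL49 was designed without a model: most single CDR substitutions and a random sample of double and triple ones. In AlphaSeq, yeast of one mating type display the scFv and yeast of the other type display the target. Binding brings cells together so that they mate, and sequencing counts the barcode pairs among the diploids. The ratio of observed to expected reads was calibrated, replicate by replicate, on BCL2-family standards whose Kd was known from biolayer interferometry. There are three technical replicates.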

Parent scFv Ab-14: VH joined to VL by the linker GGGGSGGGGSGGGGS. Changes lie in the heavy chain CDRs alone.
VH: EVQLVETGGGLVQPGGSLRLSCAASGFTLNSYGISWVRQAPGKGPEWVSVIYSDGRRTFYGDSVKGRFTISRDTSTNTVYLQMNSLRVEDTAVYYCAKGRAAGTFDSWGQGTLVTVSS
VL: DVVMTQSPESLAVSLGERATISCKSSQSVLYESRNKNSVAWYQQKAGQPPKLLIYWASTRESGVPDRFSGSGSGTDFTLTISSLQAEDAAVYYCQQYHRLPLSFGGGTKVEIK

Variants are written as CDR1, CDR2 and CDR3 of the heavy chain (limits as in the source). Parent: GFTLNSYGIS, VIYSDGRRTFYGDSVK, GRAAGTFDS. This list gathers variants with a substitution at G55 (VH, numbered from residue 1). Values are apparent Kd, the geometric mean of the replicates that gave a signal; lower means stronger binding. An entry "nd" has no value in the source: the pair was not observed among the diploids in any replicate. This suggests poor binding but is not conclusive.

| CDR-H1 | CDR-H2 | CDR-H3 | Kd | replicates with signal | empty controls |
|---|---|---|---|---|---|
| GFTLNSYVIS | VIYSDARRTFYGDSVK | GRAAGTFDS | nd | 0 of 3 | 0 of 9 |
| GFTKNSYGIS | VIYSDQRRTFYGDSVK | GRAKGTFDS | nd | 0 of 3 | 0 of 9 |
| GFTLNSSGIS | VIYSDQRRAFYGDSVK | GRAAGTFDS | nd | 0 of 3 | 0 of 9 |
| GFTLNSYAIS | VIYSDFRRTFYGDSVK | GRQAGTFDS | nd | 0 of 3 | 0 of 9 |
| GCTLNSYGIS | VIYSDSRRTFYGDSVK | DRAAGTFDS | nd | 0 of 3 | 1 of 9 |
| GFTLNSYGIS | EIYSDTRRTFYGDSVK | GRAAGTFDS | nd | 0 of 3 | 0 of 9 |
| GFTLNSYGIS | VIYSDSRRTFYGDSRK | GRAAGCFDS | nd | 0 of 3 | 0 of 9 |
| GFTSNSYEIS | VIYSDKRRTFYGDSVK | GRAAGTFDS | nd | 0 of 3 | 3 of 9 |
| GFTLNSYGIS | VIYSDRRRTFYSDSIK | GRAAGTFDS | nd | 0 of 3 | 0 of 9 |
| GFTLNSVGIS | VIYSDMRRTFYGDMVK | GRAAGTFDS | 810 nM | 1 of 3 | 0 of 9 |
| RFTLNSYGIS | VIYSDNRRTFYGDSVK | GRWAGTFDS | 15 µM | 2 of 3 | 1 of 9 |
| GFDLNSYGIS | VIYSDRRRTFYGDAVK | GRAAGTFDS | 90 nM | 1 of 3 | 0 of 9 |
| GFTLMSYGIS | VIYSDLRRTFTGDSVK | GRAAGTFDS | 65 µM | 2 of 3 | 5 of 9 |
| GFTLNSYGRS | VICSDTRRTFYGDSVK | GRAAGTFDS | nd | 0 of 3 | 2 of 9 |
| MFTLNSYGIS | VIYSDARRTFYGDSVK | GRCAGTFDS | nd | 0 of 3 | 0 of 9 |
| GFTLNSYGIS | VIYSDERRGFYGDSVK | GRAAGTFDS | nd | 0 of 3 | 0 of 9 |
| GFTLNSRGIS | VIYSDERRTFYGDSVK | GRAAWTFDS | nd | 0 of 3 | 0 of 9 |
| GFTLNSYGIS | VIYADWRRTFYQDSVK | GRAAGTFDS | 820 nM | 1 of 3 | 0 of 9 |
| GSTLNSYGIS | VSYSDSRRTFYGDSVK | GRAAGTFDS | nd | 0 of 3 | 0 of 9 |
| GFTLNSYGIS | VIMSDVRRTFYGDSVK | GRAARTFDS | nd | 0 of 3 | 0 of 9 |
| GFTLNSYGIS | VIYPDFRRTFYGDSVK | GRNAGTFDS | 77 µM | 1 of 3 | 0 of 9 |
| GFPLNSYGIS | VIYSDKRRTFYGDSVK | GRAKGTFDS | 560 µM | 2 of 3 | 6 of 9 |
| GFTLNSYGIS | VIYSDQRRTFYGDSVK | GRAAGTFDK | nd | 0 of 3 | 1 of 9 |
| WFTLNSYGIS | VWYSDDRRTFYGDSVK | GRAAGTFDS | 130 µM | 2 of 3 | 3 of 9 |

Empty control strains, which show no peptide, gave a signal in 15% of pairings with library AAYL49; the median was 11 µM and 95% of these signals were weaker than 680 nM. No background was subtracted. For each scFv, signals with the empty controls are counted beside the result. In this assay the parent's reference entry averaged 4.4 nM; its copy inside this library read 13 µM (one replicate of three).

Source: Engelhart et al. 2022 (doi:10.1038/s41597-022-01779-4), MIT Lincoln Laboratory and A-Alpha Bio; data file from the FLAb repository.